For 2 compounds, EC50 results are on record in patent US10669258B2, “3-sulfonyl-5-aminopyridine-2,4-diol APJ agonists” (BRISTOL-MYERS SQUIBB COMPANY, priority 2016, dated 2020).

By UniProt entry, the sequences of proteins in these tests, tags left out.
UniProt P35414, whole entry: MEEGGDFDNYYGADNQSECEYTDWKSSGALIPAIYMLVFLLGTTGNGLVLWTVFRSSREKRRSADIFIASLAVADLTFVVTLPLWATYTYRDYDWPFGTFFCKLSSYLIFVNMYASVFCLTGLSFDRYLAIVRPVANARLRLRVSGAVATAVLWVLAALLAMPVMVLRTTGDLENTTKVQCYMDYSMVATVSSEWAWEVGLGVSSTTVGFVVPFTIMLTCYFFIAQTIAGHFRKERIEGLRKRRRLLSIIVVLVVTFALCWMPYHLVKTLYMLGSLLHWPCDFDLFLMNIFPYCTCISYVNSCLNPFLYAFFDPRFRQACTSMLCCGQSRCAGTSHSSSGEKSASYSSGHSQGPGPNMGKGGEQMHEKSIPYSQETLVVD

In the test the target is human APJ receptor (Homo sapiens, UniProt P35414). Put plainly: Intracellular cAMP accumulation assay (APJ hcAMP, HTRF). The following applies: read-out: hAPJ cAMP EC50 Potency range; HEK293 cells stably expressing human APJ receptor; inhibition of forskolin-mediated cAMP production; Table 1. On the technique in general: Cyclic AMP is a second messenger, typically raised through Gs and lowered through Gi signalling.

The structures appear in SMILES notation.

The EC50 is the concentration needed to bring the measured effect to its halfway point.

`CCCCc1nc(O)c(S(=O)(=O)c2ccc(-c3ccncc3C)cc2)c(O)c1N1CCC(C)c2ccccc21` (centres unmarked): the EC50 lay in the range of 0.01 to 0.1 µM.
For `CCCCc1nc(O)c(S(=O)(=O)c2ccc(-c3ccncc3C)cc2)c(O)c1N1CCCCC1c1ccccc1` (centres unmarked), the EC50 lay in the range of 0.01 to 0.1 µM.
